This experiment addresses Adenosine receptor A1 (Rattus norvegicus, UniProt P25099). Briefly: Displacement of [3H]R-PIA from adenosine A1 receptor of Wistar rat forebrain. On the technique in general: In a radioligand displacement assay an active substance lowers the binding of a labelled ligand.

The chains behind the UniProt entries cited, without tags or fusion partners.
UniProt P25099, whole entry: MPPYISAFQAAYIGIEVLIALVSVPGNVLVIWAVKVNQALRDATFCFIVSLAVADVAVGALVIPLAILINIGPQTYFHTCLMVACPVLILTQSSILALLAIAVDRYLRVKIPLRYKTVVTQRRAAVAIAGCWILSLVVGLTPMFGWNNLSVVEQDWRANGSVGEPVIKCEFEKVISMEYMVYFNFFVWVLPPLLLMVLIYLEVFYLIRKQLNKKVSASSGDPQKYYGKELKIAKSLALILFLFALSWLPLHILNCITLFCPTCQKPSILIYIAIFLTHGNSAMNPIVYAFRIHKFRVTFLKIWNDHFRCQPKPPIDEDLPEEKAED

One may read the Ki as the dissociation constant of the complex between target and ligand, obtained from inhibition or displacement. Low values mean higher affinity, high ones lower affinity.

Take `CCNC(=O)[C@H]1O[C@@H](n2cnc3c(N)nc(NCCc4ccc(CCC(=O)O)cc4)nc32)[C@H](O)[C@@H]1O` [CGS-21680]: the Ki was 9.9 µM.

Source of the values: ChEMBL document CHEMBL1132368, “N-substituted adenosines as novel neuroprotective A(1) agonists with diminished hypotensive effects” (J Med Chem, 1999).
